Measured values reported in publication PMC3086806, “Mining a Cathepsin Inhibitor Library for New Antiparasitic Drug Leads” (PLoS Neglected Tropical Diseases, 2011).

What was measured:
[1] = test system: Jurkat cells (clone E6-1); test: Jurkat cell cytotoxicity assay; type: cell-based; conditions: 40 hr
Method: Jurkat cells (clone E6-1) were grown in complete RPMI-1640 medium containing 10% FBS, 50 U/mL penicillin and 50 µg/mL streptomycin (Invitrogen) at 37°C under a humidified atmosphere and 5% CO2. For cytotoxicity testing, cells were diluted to 1×10^5 per ml in complete RPMI-1640 medium. Test compound stocks were prepared in 100% DMSO and screened at 10 µM against cells (1×10^4 cells per well) in sterile Greiner 96-well flat white opaque culture plates (0.5% final DMSO concentration). The 0% inhibition control wells contained 0.5% DMSO while 100% inhibition control wells contained 40 µM staurosporine. After compound addition, plates were incubated for 40 hr at 37°C. At the end of the incubation period, 50 µL of CellTiter-Glo™ reagent (Promega Inc., Madison, WI, USA) was added to each well and plates were placed on an orbital shaker at room temperature for 2 min to induce lysis. After a further 10 min incubation without shaking to stabilize the signal, the ATP-bioluminescence of each well was determined using an Analyst HT plate reader (Molecular Devices, Sunnyvale, CA, USA). Calculations of percentage inhibition and IC50 were performed similar to those in the T. brucei brucei assay.

[2] = molecular target: human cathepsin L; conditions: read-out: Ki catL; historical data; ref data provided by Celera Genomics; cited from earlier work
[3] = molecular target: human cathepsin B; conditions: read-out: Ki catB; historical data; ref data provided by Celera Genomics; cited from earlier work

SMILES	Cytotoxicity (% inhibition at 10 µM) Jurkat cells [1] [%]	Ki [2] [nM]	Ki [3] [nM]
CC(C)C[C@H](NC(=O)c1ccc(-c2ccccc2F)cc1)C(=O)NCC#N	<5	48000	20000
CC(C)C[C@H](NC(=O)c1cc2c(-c3ccccc3)nn(C)c2s1)C(=O)NCC#N	<5	110	90000
CSc1cccc(-c2cccc(C(=O)N[C@@H](CC(C)C)C(=O)NCC#N)c2)c1	<5	110	5700
COc1ccc(-c2csc(C(=O)N[C@@H](CC(C)C)C(=O)NCC#N)c2)cc1	<5	350	4200
CC(C)C[C@H](NC(=O)c1ccc(-c2ccc(O)cc2)cc1)C(=O)NCC#N	<5	4300	5200
CC(C)C[C@H](NC(=O)c1cc2c(C(F)(F)F)nn(C)c2s1)C(=O)NCC#N	<5	150	54000
CC(C)C[C@H](NC(=O)c1cccc(-c2ccccc2S(C)(=O)=O)c1)C(=O)NCC#N	<5	2200	18000
Cc1ccccc1-c1cccc(C(=O)N[C@@H](CC(C)C)C(=O)NCC#N)c1	<5	220	24000
CC(C)C[C@H](NC(=O)c1ccc(-c2ccc(S(C)(=O)=O)cc2)cc1)C(=O)NCC#N	<5	310	2000
CC(C)C[C@H](NC(=O)c1ccc(-c2ccccc2Cl)s1)C(=O)NCC#N	<5	710	1300
COc1cccc(-c2ccc(C(=O)N[C@@H](CC(C)C)C(=O)NCC#N)cc2)c1	<5	680	1600
